## CycPeptMPDB entries from one study

Values of Furukawa et al. 2016, doi:10.1021/acs.jmedchem.6b01246, as listed in CycPeptMPDB.

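Lipid, pH, incubation time, direction and concentration are not recorded in the data file. The list need not hold all peptides of the study. Peptides that the database sets to -10, its floor, are left out.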

PAMPA measures passive passage through an artificial lipid membrane.
Permeability is in 10^-6 cm/s, converted from the database's log10 values; higher is more permeable.

| PAMPA (10^-6 cm/s) | SMILES |
|---|---|
| 4.6 | CCCC[C@@H]1NC(=O)[C@@H](CC(C)C)NC(=O)CN(CC2CCOCC2)C(=O)[C@H](Cc2ccccc2)NC(=O)CN(CCCOC(C)C)C(=O)[C@H]2CCCN2C1=O |
| 0.039 | CCCCCN1CC(=O)N(C)[C@@H](CC(C)C)C(=O)N[C@@H](CCCC)C(=O)N2CCC[C@@H]2C(=O)N(Cc2ccc3c(c2)OCO3)CC(=O)N[C@@H](Cc2ccccc2)C1=O |
| 0.068 | CCCC[C@@H]1NC(=O)[C@H](CC(C)C)N(C)C(=O)CN(CC2CCOCC2)C(=O)[C@H](C)NC(=O)CN(CC)C(=O)[C@@H]2CCCN2C1=O |
| 6 | CCCCCN1CC(=O)N(C)[C@@H](CC(C)C)C(=O)N[C@@H](CCCC)C(=O)N2CCC[C@H]2C(=O)N(CC)CC(=O)N[C@H](Cc2ccccc2)C1=O |
| 1 | CCCCCN1CC(=O)N[C@H](CC(C)C)C(=O)N[C@@H](CCCC)C(=O)N2CCC[C@@H]2C(=O)N(CC)CC(=O)N[C@@H](C)C1=O |
| 0.25 | CCCC[C@@H]1NC(=O)[C@@H](CC(C)C)NC(=O)CN(CC2CCOCC2)C(=O)[C@@H](C)NC(=O)CN(CCCOC(C)C)C(=O)[C@H]2CCCN2C1=O |
| 2.9 | CCCC[C@@H]1NC(=O)[C@H](CC(C)C)N(C)C(=O)CN(CC2CCCCC2)C(=O)[C@H](Cc2ccccc2)NC(=O)CN(CC)C(=O)[C@H]2CCCN2C1=O |
| 0.91 | CCCC[C@@H]1NC(=O)[C@H](CC(C)C)NC(=O)CN(CC2CCOCC2)C(=O)[C@H](Cc2ccccc2)NC(=O)CN(CCCOC(C)C)C(=O)[C@@H]2CCCN2C1=O |
| 4.6 | CCCCCN1CC(=O)N(C)[C@@H](CC(C)C)C(=O)N[C@@H](CCCC)C(=O)N2CCC[C@@H]2C(=O)N(CC)CC(=O)N[C@H](Cc2ccccc2)C1=O |
| 3.7 | CCCCCN1CC(=O)N[C@@H](CC(C)C)C(=O)N[C@@H](CCCC)C(=O)N2CCC[C@@H]2C(=O)N(Cc2ccc3c(c2)OCO3)CC(=O)N[C@H](Cc2ccccc2)C1=O |
| 1.6 | CCCCCN1CC(=O)N(C)[C@@H](CC(C)C)C(=O)N[C@@H](CCCC)C(=O)N2CCC[C@@H]2C(=O)N(CCCOC(C)C)CC(=O)N[C@H](C)C1=O |
| 10 | CCCC[C@@H]1NC(=O)[C@@H](CC(C)C)N(C)C(=O)CN(CC2CCOCC2)C(=O)[C@H](Cc2ccccc2)NC(=O)CN(Cc2ccc3c(c2)OCO3)C(=O)[C@@H]2CCCN2C1=O |
| 12 | CCCC[C@@H]1NC(=O)[C@H](CC(C)C)N(C)C(=O)CN(CC2CCCCC2)C(=O)[C@H](C)NC(=O)CN(Cc2ccc3c(c2)OCO3)C(=O)[C@@H]2CCCN2C1=O |
| 4.9 | CCCC[C@@H]1NC(=O)[C@H](CC(C)C)N(C)C(=O)CN(CC2CCCCC2)C(=O)[C@@H](C)NC(=O)CN(Cc2ccc3c(c2)OCO3)C(=O)[C@H]2CCCN2C1=O |
| 0.1 | CCCC[C@@H]1NC(=O)[C@H](CC(C)C)NC(=O)CN(CC2CCOCC2)C(=O)[C@@H](Cc2ccccc2)NC(=O)CN(CC)C(=O)[C@H]2CCCN2C1=O |
| 0.66 | CCCCCN1CC(=O)N[C@H](CC(C)C)C(=O)N[C@@H](CCCC)C(=O)N2CCC[C@H]2C(=O)N(CCCOC(C)C)CC(=O)N[C@H](C)C1=O |

A selection of 2 entries from above:

| SMILES | PAMPA (10^-6 cm/s) |
|---|---|
| CCCCCN1CC(=O)N(C)[C@@H](CC(C)C)C(=O)N[C@@H](CCCC)C(=O)N2CCC[C@H]2C(=O)N(CC)CC(=O)N[C@H](Cc2ccccc2)C1=O | 6 |
| CCCC[C@@H]1NC(=O)[C@H](CC(C)C)NC(=O)CN(CC2CCOCC2)C(=O)[C@H](Cc2ccccc2)NC(=O)CN(CCCOC(C)C)C(=O)[C@@H]2CCCN2C1=O | 0.91 |